These are literature values, as cited in patent US10905685B2 (priority 2012, dated 2021).

For this data set the following is noted: in vivo.

Structures are written as SMILES.

`CN1CC[C@]23c4c5ccc(O)c4O[C@H]2C(=O)CC[C@H]3C1C5` [hydromorphone, 4,5-α-epoxy-3-hydroxy-17-methyl morphinan-6-one]: the “strength relative to heroin on a milligram basis” value is “about three times stronger than heroin” and the “strength relative to morphine on a milligram basis” value is on record as “about eight times stronger than morphine”.
